The values that follow come from patent publication US20240409582A1, “DESIGN AND CHARACTERIZATION OF INHIBITORY PEPTIDES (IPEPS) DERIVED FROM OF MIEN 1 PROTEIN SEQUENCE” (priority 2022, published 2024).

Usually Cmax stands for the maximum level reached in the sampled fluid or tissue. For orientation: Tmax means the time from dosing to the highest level. Usually Vss stands for a proportionality between amount in the body and measured concentration, not a real space. Low values mean confinement near the circulation, high ones extensive tissue distribution.

The nature of series [1]: In vivo toxicity at three times the experimental dose. Also noted: species or system athymic nude mice. To be noted: for tolerability: 90 mg/Kg; for survival: 90 mg/Kg intraperitoneally on Day 5 and Day 15, n=3. The method, then:
MDA-MB-231 cells were implanted orthotopically into the second thoracic mammary fat pad of nude mice (n=5). […] The control mice received vehicle only. (B) At the end of the experiments, representative tumors were removed and photographed. […] The Tumor sizes were measured by a digital caliper and shown as mean volume±SD every alternate day for 30 days. […] The statistical analysis was performed on GraphPad Prism 9.4.0.
In another experiment, two groups of mice received three times the experimental dose of both the peptides at 90 mg/Kg on Day 5 and Day 15 to check for potential toxicity.

Series [2] is described as follows: Mouse liver microsome stability. To be noted: 2 μM, 0.5 mg/mL microsome protein, NADPH. Format: in vitro ADME. As for the experimental part:
(§1) Analytical LC-MS/MS conditions.
Mouse liver microsome stability. Male ICR/CD-1 mouse microsome fractions (lot 2110330) were purchased from Xenotech (Kansas City, KS). Microsome protein (0.5 mg/mL) was placed in a glass screw cap tube; a 2 mM DMSO stock of (D/L)-LA3IK and (D/L)-RP-7 were spiked into separate 50 mM Tris, pH 7.5 solution and this was added to the microsome solution on ice. The final concentration of compounds after addition of all reagents was 2 μM. An NADPH-regenerating system (1.7 mg/ml NADP, 7.8 mg/ml glucose-6-phosphate, 6 U/ml glucose-6-phosphate dehydrogenase in 2% w/v NaHCO3/10 mM MgCl2) was added for analysis of Phase I metabolism after heating both the regenerating solution and the sample tubes to 37° C. for 5 min in a 37° C. shaking water bath. The incubation was continued and at varying time points after addition of phase I cofactors, the reaction was stopped by the addition of 0.5 ml of acetonitrile containing IS and formic acid such that the final concentration of IS was 100 ng/ml and acid was 0.1%. Time 0 samples were stopped with the acetonitrile solution while still on ice prior to addition of the NADPH regenerating system and compound, which were subsequently added. […] The supernatant was analyzed by LC-MS/MS. […] The half-life (T ½) was calculated as T ½=0.693/slope.

Series [3] is described as follows: Plasma stability. To be noted: 2 μM, 37° C., up to 24 hours. Format: in vitro ADME, mouse. As for the experimental part: as §1
Plasma Stability. CD1 mouse plasma isolated using acidified citrate dextrose (ACD) was purchased from BioIVT and a DMSO stock of each compound was diluted into it at a final concentration of 2 μM. An aliquot was immediately removed for a zero time point and quenched with an equal volume of acetonitrile containing 0.2% formic acid and 200 ng/ml Tolbutamide IS. The remainder of the sample was incubated in a 37° C. water bath for up to 24 hours. Samples were removed at the indicated times and processed as described for the zero time point. After vortexing and centrifugation to pellet protein, the supernatant was analyzed by LC-MS/MS as described above. A control incubation was conducted in saline (0.9% NaCl).

Series [4] can be described thus: Pharmacokinetic study in CD-1 mice. To be noted: CD-1 female mice, intravenous 5 mg/kg.

In the case of LAIAVK [LA3IK], in series [1], the tolerability result is recorded as “well-tolerated” and the survival result is reported as “All mice (n=3) were alive after 30 days”. Besides, the “Mouse Microsome T 1/2” value in series [2] was over 2 h. In series [3], the “Murine Plasma T 1/2” value is 2.55 h.

With RPPCVIL [RP-7], in series [1], the tolerability result was “well-tolerated” and the survival result is listed as “All mice (n=3) were alive after 30 days”. Besides, the “Mouse Microsome T 1/2” value in series [2] came out at 0.872 h.

Regarding d(L)d(A)d(I)d(A)d(V)d(K) [D-LA3IK], in series [4], the AUClast was 203,986 min*ng/ml, the Cl came to 24.5 mL, the Cmax worked out at 3574 ng/mL and the “Terminal T 1/2” value was 3.58 h. Moreover, in series [4], the time to peak (Tmax) is on record as 5 min and the volume of distribution (Vss) came out at 1574 mL/kg.

With d(R)d(P)d(P)d(C)d(V)d(I)d(L) [D-RP-7], in series [4], the Cl turned out to be 1415.5 mL, the maximum concentration (Cmax) stood at 48 ng/mL, the “Terminal T 1/2” value worked out at 13.8 h and the Tmax was 5 min. The distribution volume (Vss) in series [4] is listed as 1,310,506 mL/kg.
